Source: patent US20090299063A1, “Inhibitors for Extracellular Signal-Regulated Kinase Docking Domains and Uses Therefor” (priority 2005, published 2009)

Tests used:
HeLa cells = experiment: Colony formation assay, HeLa cells
[1] = tested on: A549 lung carcinoma cells; experiment: Colony formation assay, A549 cells
[2] = tested on: HT1080 fibrosarcoma cells; experiment: Cell proliferation, HT1080 cells
MDA-MB-468 cells = experiment: Cell proliferation, MDA-MB-468 cells

Measured: IC50 of cell proliferation (in words)

O=C(CSc1nc2ccccc2o1)Nc1ccc(-n2cnnn2)cc1
IC50 values similar to 76 and 81: all assays above
